{"source": "paper PMC7874389", "about": "(Nature, 2020)", "format_in_all_cases": "in vivo", "key": {"[1]": {"tested_on": "larval zebrafish", "assay": "Larval zebrafish behavioral profiling", "settings": "1–200 μM, 7 dpf, battery of light and acoustic stimuli"}, "[2]": {"tested_on": "larval zebrafish", "assay": "Larval zebrafish developmental toxicity", "settings": "100 μM, 2 and 5 dpf"}, "[3]": {"tested_on": "larval zebrafish", "assay": "Larval zebrafish heart rate and arrhythmia", "settings": "immobilized 7 dpf larvae, 50 μM"}, "[4]": {"tested_on": "larval zebrafish expressing GCaMP5", "assay": "Larval zebrafish seizure experiments", "settings": "IBO and TBG 50 μM, PTZ 15 mM, 1 h"}}, "data": [{"substance": "ibogaine", "values": [{"measurement": "behavioral profile versus vehicle and lethal (eugenol) controls", "setting": "[1]", "result": "produced behavioral profiles similar to the lethal control"}, {"measurement": "malformation and mortality", "setting": "[2]", "result": "significantly increased malformations and mortality"}, {"measurement": "heart rate (bradycardia)", "setting": "[3]", "result": "decreased heart rate"}, {"measurement": "seizurogenic potential (neural activity, GCaMP5 fluorescence)", "setting": "[4]", "result": "Neither ibogaine nor TBG produced excessive neural activity"}]}]}
